Values quoted from earlier work as cited in US20120142623A1, “Compositions And Methods For Predicting Inhibitors Of Protein Targets” (priority 2006, published 2012).

Target: Integrase (Human immunodeficiency virus type 1 group M subtype B, UniProt P04585)
Conditions: HIV-1 target Integrase; read-out: Inhibitory effect (uM), IC50, Integrase; cited from earlier work

COc1cc(/C=C/C(=O)CC(=O)/C=C/c2ccc(O)c(OC)c2)ccc1O [Curcumin]
IC50: 30 µM
